We go through two substances from patent US20040121965A1, “Method of treating resistant tumors” (Wyeth Holdings Corporation, priority 2002, published 2004).

The test system of one experiment is KB-8-5 (MDR1+). Briefly: Cell survival assay (SRB), KB-8-5 (MDR1+).
A further experiment deals with KB-V1 (MDR1++). In words: Cell survival assay (SRB), KB-V1 (MDR1++).

As to “(2E,4S)4-[{(2R)-2-cyclohexyl-2-[(N,β,1-trimethyl-L-phenylalanyl)amino]ethanoyl}(methyl)amino]-2,5-dimethylhex-2-enoic Acid Trifluoroacetic Acid [Example 98]”, the “Ratio KB85/KB” value in the experiment on KB-8-5 (MDR1+) was determined as 1.4. In the experiment on KB-V1 (MDR1++), the “Ratio KBV1/KB” value was determined as 22.2.
The corresponding values for “(2E,4S)-2,5-dimethyl4-(methyl{(2S)-2-[(N,β,1-trimethyl-L-phenylalanyl)amino]butanoyl}amino)hex-2-enoic Acid Trifluoroacetic Acid [Example 99]” are 1.4 and 22.0.
